Here are results for 3 compounds from the supplement of paper PMC11403291.

By UniProt entry, the sequences of proteins in these tests, tags left out. Where a name states a change or a piece, a line headed by the entry shows the natural chain unless it says otherwise.
UniProt P06213, whole entry: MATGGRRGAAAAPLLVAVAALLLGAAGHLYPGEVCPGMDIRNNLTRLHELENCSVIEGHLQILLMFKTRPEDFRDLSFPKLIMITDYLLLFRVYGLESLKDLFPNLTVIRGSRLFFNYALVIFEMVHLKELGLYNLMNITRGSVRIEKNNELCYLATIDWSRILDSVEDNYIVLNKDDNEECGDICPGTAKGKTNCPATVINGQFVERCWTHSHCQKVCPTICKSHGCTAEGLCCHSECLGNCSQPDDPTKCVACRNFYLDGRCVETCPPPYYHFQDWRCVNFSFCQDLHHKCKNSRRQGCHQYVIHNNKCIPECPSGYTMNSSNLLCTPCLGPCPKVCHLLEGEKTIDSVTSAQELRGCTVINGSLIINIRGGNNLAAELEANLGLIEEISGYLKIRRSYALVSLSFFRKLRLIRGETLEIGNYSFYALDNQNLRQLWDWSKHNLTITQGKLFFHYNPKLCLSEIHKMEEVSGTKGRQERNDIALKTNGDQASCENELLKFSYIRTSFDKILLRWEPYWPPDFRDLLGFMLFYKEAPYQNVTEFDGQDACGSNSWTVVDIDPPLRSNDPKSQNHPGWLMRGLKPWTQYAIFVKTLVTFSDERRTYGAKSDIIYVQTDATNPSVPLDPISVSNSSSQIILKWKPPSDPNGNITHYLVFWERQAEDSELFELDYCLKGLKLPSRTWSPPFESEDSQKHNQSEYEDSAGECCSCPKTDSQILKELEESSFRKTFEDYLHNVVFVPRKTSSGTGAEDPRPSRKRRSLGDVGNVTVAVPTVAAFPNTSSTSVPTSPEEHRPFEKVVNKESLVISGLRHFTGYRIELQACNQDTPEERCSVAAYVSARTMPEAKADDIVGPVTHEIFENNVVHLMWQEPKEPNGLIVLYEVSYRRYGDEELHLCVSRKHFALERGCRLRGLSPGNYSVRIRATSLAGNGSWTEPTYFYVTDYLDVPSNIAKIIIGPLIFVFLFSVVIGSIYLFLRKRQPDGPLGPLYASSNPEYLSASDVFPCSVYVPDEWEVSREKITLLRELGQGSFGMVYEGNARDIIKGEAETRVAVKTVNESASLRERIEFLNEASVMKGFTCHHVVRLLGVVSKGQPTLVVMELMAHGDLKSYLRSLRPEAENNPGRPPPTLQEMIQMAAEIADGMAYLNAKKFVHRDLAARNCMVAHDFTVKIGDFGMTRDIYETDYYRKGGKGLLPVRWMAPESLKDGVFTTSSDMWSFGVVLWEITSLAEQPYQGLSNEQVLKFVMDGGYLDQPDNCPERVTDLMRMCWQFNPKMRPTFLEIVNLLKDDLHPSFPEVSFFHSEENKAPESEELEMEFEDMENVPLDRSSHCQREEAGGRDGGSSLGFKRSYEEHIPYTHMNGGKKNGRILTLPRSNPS
UniProt P16591: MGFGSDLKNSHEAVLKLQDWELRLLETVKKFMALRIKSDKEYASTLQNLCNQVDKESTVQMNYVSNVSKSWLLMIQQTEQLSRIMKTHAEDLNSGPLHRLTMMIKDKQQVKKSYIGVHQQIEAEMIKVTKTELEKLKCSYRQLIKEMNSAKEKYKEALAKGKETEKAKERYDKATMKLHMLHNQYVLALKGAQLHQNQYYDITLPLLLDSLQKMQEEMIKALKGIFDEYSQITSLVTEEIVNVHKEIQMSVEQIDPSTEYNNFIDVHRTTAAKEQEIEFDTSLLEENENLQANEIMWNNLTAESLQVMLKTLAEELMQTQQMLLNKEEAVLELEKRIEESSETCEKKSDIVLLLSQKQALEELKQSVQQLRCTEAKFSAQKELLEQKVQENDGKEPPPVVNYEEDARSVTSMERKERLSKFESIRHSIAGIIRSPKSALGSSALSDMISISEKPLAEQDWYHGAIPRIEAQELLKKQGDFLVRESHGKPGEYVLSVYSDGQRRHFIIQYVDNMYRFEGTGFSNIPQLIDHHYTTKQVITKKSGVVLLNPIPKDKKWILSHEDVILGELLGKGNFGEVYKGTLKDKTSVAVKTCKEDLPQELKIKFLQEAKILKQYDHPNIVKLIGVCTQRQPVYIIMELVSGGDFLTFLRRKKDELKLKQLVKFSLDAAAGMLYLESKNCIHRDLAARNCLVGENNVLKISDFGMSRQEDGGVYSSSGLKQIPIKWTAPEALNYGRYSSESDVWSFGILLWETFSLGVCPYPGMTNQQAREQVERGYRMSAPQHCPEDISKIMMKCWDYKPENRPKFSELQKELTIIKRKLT
UniProt P45984: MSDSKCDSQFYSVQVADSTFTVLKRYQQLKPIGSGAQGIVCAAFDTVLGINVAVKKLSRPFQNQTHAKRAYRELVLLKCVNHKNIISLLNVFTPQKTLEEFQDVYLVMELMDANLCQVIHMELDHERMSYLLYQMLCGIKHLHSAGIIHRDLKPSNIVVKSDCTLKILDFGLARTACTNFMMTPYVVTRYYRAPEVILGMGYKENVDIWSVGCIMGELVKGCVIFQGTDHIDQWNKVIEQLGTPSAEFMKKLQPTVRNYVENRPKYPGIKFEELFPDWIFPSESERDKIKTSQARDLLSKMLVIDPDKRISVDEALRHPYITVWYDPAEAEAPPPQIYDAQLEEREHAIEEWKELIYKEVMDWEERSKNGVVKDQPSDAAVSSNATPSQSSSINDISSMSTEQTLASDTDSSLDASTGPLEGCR

Structures are written as SMILES.

Targets include INSR (UniProt P06213); FER (UniProt P16591); MAPK9 (UniProt P45984).
Common to all, as to assay: apparent dissociation constant pKd app (kinobead competition) (-log10(M)); higher = stronger binding
In a further assay the target is T1, MAP3K15 (UniProt Q6ZN16).
T1 sequence (whole entry): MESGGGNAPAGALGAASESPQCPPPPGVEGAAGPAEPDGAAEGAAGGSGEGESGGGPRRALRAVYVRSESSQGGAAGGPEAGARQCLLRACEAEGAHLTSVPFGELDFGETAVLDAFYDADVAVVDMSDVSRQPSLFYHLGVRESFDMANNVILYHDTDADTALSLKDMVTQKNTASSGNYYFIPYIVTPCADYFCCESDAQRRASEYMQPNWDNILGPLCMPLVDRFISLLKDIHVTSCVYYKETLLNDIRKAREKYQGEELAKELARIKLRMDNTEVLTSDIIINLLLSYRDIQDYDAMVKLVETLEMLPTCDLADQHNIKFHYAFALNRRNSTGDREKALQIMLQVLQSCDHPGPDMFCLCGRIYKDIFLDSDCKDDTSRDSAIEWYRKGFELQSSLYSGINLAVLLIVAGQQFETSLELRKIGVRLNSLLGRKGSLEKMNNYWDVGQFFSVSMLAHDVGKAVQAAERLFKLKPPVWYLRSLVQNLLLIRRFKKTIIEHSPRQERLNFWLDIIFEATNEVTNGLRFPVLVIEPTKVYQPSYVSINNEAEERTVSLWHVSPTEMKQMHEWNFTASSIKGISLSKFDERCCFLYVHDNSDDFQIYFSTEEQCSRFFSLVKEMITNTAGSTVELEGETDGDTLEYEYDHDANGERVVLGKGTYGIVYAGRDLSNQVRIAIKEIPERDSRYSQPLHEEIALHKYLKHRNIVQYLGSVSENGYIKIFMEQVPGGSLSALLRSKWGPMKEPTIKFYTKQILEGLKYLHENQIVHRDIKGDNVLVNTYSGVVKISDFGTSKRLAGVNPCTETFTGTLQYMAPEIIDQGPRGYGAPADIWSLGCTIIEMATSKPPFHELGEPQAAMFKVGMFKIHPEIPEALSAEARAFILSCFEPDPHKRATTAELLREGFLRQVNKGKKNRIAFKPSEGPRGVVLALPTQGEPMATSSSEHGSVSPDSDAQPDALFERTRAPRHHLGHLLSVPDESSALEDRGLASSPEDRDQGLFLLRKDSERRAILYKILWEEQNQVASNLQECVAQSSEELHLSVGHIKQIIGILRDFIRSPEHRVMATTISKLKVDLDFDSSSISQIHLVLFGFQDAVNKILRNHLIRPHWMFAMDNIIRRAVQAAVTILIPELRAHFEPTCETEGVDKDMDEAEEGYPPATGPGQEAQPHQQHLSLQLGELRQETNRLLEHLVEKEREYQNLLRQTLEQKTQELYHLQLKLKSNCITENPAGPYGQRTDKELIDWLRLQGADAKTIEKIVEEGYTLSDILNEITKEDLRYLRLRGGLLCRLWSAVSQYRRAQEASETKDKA

The target of another assay is T2, MYLK3 (UniProt Q32MK0).
T2 sequence (whole entry): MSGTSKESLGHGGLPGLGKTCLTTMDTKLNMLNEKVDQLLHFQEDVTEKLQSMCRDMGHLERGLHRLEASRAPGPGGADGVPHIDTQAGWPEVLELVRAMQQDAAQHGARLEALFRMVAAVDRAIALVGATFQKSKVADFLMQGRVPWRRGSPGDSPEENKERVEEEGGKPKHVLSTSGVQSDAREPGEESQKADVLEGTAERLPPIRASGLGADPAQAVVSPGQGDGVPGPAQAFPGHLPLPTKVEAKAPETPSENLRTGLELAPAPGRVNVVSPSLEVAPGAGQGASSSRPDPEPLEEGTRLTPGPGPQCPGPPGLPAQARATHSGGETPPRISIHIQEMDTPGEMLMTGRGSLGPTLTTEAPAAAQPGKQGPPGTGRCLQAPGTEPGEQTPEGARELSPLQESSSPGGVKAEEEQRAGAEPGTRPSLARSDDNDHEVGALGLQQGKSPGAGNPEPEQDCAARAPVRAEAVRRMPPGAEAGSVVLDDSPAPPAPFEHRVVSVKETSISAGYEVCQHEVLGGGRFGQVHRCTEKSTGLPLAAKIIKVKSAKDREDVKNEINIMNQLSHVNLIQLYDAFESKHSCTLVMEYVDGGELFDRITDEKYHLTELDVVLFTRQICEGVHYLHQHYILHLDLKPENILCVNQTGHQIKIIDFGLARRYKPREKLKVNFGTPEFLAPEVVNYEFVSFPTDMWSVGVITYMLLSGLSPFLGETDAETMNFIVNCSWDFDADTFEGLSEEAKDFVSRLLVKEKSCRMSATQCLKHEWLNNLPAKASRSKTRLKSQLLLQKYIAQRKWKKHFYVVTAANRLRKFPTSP

The next assay concerns the target T3, TP53RK (UniProt Q96S44).
T3 sequence (whole entry): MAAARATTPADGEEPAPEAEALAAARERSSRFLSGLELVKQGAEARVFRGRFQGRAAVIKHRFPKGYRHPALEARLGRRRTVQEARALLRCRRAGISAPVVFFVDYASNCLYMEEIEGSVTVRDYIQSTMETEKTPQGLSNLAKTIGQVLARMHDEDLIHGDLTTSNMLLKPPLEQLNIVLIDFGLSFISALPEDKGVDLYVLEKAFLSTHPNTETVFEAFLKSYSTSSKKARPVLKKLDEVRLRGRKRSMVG

On to `NC(=O)c1cccc2cn(-c3ccc([C@@H]4CCCNC4)cc3)nc12` [Niraparib], for which the “apparent dissociation constant pKd app (-log10)” value is less than 4.5 on INSR; less than 4.5 at MAP3K15; less than 4.5 at MYLK3; less than 4.7 at FER; less than 5 at MAPK9; less than 4.5 at TP53RK.
Take `Cn1ncnc1[C@H]1c2n[nH]c(=O)c3cc(F)cc(c23)N[C@@H]1c1ccc(F)cc1` [Talazoparib]: the “apparent dissociation constant pKd app (-log10)” value was less than 4.5 at INSR; less than 4.5 at MAP3K15; less than 4.5 on MYLK3; less than 4.7 at FER; less than 5 on MAPK9; less than 4.5 at TP53RK.
Regarding `O=C(c1cc(Cc2n[nH]c(=O)c3ccccc23)ccc1F)N1CCN(C(=O)C2CC2)CC1` [Olaparib], the “apparent dissociation constant pKd app (-log10)” value on INSR was less than 4.5; on MAP3K15, less than 4.5; at MYLK3, less than 4.5; on FER it was less than 4.7; at MAPK9, less than 5; on TP53RK it was less than 4.5.
